Laboratory results published in patent US20140005163A1 (NOVARTIS AG, priority 2010, published 2014).
In brackets after ≈: the same amount, converted by molar mass.

Chains of the proteins cited; added tags and fusions are not shown. A line that says so, or that is headed by a name, gives the form on record, which may keep a tag or linker. Residues count along the entry.
UniProt P42338, 2-1070 with tags or gaps limits assumed: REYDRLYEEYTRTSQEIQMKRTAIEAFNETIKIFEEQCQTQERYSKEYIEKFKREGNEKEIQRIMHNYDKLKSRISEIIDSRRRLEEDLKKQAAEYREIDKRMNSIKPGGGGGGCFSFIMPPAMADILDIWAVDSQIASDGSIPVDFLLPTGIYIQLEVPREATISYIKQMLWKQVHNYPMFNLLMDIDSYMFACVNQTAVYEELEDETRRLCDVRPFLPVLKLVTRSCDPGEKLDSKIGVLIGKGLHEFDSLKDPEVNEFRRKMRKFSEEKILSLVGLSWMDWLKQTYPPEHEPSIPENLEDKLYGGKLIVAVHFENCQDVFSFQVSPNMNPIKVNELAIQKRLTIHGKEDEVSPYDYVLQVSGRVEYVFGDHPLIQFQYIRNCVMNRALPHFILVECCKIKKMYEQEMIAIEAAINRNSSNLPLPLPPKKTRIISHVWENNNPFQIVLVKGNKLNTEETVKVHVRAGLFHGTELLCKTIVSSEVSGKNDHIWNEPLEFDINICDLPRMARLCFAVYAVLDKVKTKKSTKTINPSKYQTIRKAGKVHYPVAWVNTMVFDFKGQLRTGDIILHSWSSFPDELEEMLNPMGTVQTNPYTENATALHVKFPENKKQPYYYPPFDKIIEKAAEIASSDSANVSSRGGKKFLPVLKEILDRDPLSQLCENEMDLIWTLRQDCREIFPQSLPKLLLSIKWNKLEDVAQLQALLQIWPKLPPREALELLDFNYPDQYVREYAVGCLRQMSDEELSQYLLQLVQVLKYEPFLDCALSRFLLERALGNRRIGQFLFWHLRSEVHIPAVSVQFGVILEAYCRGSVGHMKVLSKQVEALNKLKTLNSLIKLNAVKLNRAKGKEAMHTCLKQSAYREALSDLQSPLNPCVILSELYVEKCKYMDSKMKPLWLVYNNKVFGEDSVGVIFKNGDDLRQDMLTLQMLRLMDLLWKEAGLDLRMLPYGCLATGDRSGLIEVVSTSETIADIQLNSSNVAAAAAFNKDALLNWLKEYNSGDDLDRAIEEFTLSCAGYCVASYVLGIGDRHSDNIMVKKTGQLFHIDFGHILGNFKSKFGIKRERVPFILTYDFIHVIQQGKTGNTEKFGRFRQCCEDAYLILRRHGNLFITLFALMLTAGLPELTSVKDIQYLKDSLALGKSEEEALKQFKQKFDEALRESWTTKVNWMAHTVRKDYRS
UniProt P42345, 1360-2549 limits assumed: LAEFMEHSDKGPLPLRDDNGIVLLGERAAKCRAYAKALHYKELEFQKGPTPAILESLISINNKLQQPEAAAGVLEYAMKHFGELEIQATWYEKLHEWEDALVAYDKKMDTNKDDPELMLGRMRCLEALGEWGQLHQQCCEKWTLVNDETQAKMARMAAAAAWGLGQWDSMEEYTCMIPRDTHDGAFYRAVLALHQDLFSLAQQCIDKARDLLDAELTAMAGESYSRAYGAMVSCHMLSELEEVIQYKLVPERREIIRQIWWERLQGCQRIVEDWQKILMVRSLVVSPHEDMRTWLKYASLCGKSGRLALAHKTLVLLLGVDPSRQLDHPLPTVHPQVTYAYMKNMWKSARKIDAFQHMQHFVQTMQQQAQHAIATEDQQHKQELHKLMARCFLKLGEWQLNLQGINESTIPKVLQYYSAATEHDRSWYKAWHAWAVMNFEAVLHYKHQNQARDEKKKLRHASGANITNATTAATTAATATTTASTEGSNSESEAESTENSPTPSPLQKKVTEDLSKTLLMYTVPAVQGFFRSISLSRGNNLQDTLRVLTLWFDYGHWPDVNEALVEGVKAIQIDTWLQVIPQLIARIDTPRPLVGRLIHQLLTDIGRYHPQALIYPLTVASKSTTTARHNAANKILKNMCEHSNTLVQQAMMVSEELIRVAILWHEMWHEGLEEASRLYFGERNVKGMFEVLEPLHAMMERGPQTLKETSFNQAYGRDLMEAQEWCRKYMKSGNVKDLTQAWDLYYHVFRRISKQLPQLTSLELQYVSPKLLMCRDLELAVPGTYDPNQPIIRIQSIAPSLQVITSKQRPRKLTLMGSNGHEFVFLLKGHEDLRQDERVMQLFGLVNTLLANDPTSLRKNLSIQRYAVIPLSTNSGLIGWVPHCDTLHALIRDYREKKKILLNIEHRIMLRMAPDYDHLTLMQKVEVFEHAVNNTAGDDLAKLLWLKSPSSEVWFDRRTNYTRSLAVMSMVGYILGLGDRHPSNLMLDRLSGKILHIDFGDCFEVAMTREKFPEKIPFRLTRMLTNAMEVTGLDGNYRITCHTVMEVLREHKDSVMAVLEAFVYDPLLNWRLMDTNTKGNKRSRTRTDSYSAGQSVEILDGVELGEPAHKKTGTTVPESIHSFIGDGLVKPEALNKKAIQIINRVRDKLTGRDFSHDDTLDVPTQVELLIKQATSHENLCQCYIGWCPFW
UniProt O00329, 2-1044 with tags or gaps limits assumed: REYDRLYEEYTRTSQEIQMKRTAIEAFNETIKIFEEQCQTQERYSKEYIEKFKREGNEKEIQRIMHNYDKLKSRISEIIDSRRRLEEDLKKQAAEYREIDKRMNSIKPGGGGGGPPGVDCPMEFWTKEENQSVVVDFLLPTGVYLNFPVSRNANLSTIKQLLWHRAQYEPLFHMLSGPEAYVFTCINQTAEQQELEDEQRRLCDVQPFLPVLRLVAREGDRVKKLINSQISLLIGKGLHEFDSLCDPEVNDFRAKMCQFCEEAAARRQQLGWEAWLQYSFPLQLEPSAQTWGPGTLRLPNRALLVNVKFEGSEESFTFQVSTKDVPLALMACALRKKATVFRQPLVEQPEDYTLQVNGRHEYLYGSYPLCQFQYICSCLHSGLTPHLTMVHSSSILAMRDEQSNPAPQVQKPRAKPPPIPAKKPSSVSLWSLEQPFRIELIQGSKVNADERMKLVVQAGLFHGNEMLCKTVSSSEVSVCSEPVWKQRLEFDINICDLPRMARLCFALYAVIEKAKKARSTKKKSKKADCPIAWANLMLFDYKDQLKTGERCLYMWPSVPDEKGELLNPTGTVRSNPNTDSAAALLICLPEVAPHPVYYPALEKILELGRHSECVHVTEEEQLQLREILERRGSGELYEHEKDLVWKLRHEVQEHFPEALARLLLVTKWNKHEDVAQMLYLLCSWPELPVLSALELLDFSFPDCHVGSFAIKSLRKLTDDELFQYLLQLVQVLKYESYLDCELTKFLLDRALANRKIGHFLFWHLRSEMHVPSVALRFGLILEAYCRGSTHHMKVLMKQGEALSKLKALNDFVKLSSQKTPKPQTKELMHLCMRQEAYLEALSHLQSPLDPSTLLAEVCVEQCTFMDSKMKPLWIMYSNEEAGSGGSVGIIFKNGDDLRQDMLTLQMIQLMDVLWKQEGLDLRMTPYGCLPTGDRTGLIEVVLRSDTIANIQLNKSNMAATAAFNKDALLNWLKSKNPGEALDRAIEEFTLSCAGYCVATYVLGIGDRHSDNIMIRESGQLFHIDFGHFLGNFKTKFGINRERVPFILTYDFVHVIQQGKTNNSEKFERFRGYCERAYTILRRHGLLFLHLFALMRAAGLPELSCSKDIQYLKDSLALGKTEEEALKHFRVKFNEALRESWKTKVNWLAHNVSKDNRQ
UniProt P42336, 21-1068 with tags or gaps limits assumed: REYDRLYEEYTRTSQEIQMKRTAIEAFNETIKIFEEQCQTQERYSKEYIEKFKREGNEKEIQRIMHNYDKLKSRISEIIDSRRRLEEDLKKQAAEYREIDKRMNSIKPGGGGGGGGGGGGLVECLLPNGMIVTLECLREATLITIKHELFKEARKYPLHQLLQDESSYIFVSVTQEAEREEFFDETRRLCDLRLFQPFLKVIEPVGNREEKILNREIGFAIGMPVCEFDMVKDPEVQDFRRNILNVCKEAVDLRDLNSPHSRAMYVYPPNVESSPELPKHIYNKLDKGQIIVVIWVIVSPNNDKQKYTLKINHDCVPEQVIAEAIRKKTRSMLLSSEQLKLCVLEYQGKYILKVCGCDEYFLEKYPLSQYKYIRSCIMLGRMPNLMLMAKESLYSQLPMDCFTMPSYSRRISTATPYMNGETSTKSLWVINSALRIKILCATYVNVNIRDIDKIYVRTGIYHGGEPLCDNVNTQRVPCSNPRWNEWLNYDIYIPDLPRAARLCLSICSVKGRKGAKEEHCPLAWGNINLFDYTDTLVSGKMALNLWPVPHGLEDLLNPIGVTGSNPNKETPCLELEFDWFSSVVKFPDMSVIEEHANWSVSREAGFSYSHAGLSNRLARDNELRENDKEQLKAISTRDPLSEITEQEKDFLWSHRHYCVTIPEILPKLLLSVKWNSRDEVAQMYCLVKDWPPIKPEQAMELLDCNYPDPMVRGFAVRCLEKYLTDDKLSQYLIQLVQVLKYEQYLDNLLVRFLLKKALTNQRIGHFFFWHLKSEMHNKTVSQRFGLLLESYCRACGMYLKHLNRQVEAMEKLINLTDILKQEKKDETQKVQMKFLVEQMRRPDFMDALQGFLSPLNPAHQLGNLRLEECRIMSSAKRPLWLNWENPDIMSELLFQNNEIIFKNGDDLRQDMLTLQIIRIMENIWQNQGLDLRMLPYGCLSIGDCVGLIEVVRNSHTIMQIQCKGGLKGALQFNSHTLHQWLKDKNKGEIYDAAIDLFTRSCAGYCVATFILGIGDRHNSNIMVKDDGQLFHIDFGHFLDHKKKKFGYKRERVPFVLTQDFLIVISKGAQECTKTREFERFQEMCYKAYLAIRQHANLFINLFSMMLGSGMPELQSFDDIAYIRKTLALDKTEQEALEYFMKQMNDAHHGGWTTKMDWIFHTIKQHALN

Legend:
PI3K beta = PI3K beta (Homo sapiens, UniProt P42338); assay: PI3K beta kinase assay (Kinase-Glo luminescence); details: read-out: PI3K beta IC50
[1] = tested on: PKB Ser473 phosphorylation in Rat1-myr-HA-p110 delta cells; assay: Reverse protein array assay, PKB Ser473 phosphorylation in Rat1-myr-p110 delta cells; details: read-out: p-PKB IC50
mTOR = mTOR (Homo sapiens, UniProt P42345); assay: Biochemical assay for m-TOR by TR-FRET; details: read-out: mTOR IC50, 8 μM ATP, 400 nM GFP-4EBP1, 0.5 nM mTOR
[2] = tested on: S6 Ribosomal Protein phosphorylation Ser235/236 in TSC1 null mouse embryo fibroblast (MEF) cells; assay: Reverse protein array assay, S6 Ribosomal Protein phosphorylation Ser235/236 in TSC1 null MEF cells; details: read-out: p-S6 IC50, pS6 ribosomal protein Ser235/236, 60 minutes incubation
CaCo2 = assay: Cellular CaCo2 permeability assay from apical to basal (A-B)
PI3K delta = PI3K delta (Homo sapiens, UniProt O00329); assay: PI3K delta kinase assay (Kinase-Glo luminescence); details: read-out: PI3K delta IC50
[3] = tested on: PKB Ser473 phosphorylation in Rat1-myr-HA-p110 alpha cells; assay: Reverse protein array assay, PKB Ser473 phosphorylation in Rat1-myr-p110 alpha cells; details: read-out: p-PKB IC50, pAkt Ser473, 30 minutes compound incubation
PI3K alpha = PI3K alpha (Homo sapiens, UniProt P42336); assay: PI3K alpha kinase assay (Kinase-Glo luminescence); details: read-out: PI3K alpha IC50
[4] = tested on: PKB Ser473 phosphorylation in Rat1-myr-HA-p110 beta cells; assay: Reverse protein array assay, PKB Ser473 phosphorylation in Rat1-myr-p110 beta cells; type: cell-based; details: read-out: p-PKB IC50, pAkt Ser473, 30 minutes incubation

Row | Structure (SMILES) | IC50 (PI3K beta) | IC50 [1] | IC50 (mTOR) | IC50 [2] | Pe A-B (permeability) (CaCo2) | IC50 (PI3K delta) | solubility (Solubility at pH 6.8) | IC50 [3] | IC50 (PI3K alpha) | IC50 [4]
1 | CCn1cc(-n2c(=O)n(C)c3cnc4ccc(-c5cnc(C)c(OC(C)C)c5)cc4c32)c(C)n1 | 30 nM | 16 nM | 19 nM | 5 nM | 26.4 10^−6 cm/s | 5 nM | 246 µg/mL (≈ 539 µM) | < 5 nM | 4 nM | 
2 | COc1ncc(-c2ccc3ncc4c(c3c2)n(-c2cn(C)nc2C)c(=O)n4C)cc1OC(C)C | 4 nM | 8 nM | < 3 nM | 1 nM |  | < 3 nM | 4 µg/mL (≈ 8.72 µM) | < 5 nM | 4 nM | 9 nM
